Values quoted from earlier work as cited in patent publication US20210206820A1 (Purdue Research Foundation, priority 2018, published 2021).

Amino acid sequences for entries named in this document (tags omitted). Residues count along the entry.
UniProt P32241, 31-457: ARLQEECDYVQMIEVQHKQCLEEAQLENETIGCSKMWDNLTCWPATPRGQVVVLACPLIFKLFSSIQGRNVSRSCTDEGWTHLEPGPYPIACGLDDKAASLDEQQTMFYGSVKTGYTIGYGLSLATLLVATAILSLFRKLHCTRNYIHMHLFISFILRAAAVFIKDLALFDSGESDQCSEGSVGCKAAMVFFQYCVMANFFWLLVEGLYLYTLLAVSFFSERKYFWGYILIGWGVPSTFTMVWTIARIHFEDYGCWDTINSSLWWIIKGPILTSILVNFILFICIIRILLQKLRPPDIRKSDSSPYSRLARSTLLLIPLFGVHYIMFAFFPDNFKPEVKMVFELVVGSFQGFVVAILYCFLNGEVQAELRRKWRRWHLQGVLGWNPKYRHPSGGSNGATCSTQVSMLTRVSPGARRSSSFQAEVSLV

Target: VPAC-1 (Homo sapiens, UniProt P32241)
Details: VIP compared with PACAP; cited from earlier work

## Vasoactive Intestinal Peptide [VIP]
  Affinity for VPAC-1: equal affinity
